## Ab-91 heavy chain CDR variants: yeast mating affinities

From the AlphaSeq antibody data of Engelhart et al. 2022 (doi:10.1038/s41597-022-01779-4), copy in the FLAb collection.

Target: peptide PDVDLGDISGINAS, taken from heptad repeat 2 (HR2) of SARS-CoV-2 spike.

Parent: Ab-91, a human scFv built as VL, a 15-residue (Gly4Ser)3 linker, VH. Only the CDRs of the heavy chain vary.
VL: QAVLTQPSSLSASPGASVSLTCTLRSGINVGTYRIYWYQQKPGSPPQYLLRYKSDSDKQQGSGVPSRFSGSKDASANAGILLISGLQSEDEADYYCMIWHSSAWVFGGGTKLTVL
VH: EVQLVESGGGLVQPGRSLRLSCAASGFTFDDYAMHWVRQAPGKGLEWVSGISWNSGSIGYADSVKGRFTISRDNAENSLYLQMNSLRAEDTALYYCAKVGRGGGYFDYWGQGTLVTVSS

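Phage display of a naive human antibody library on the peptide gave the parent. In library AAYL51, one, two or three CDR residues were substituted; doubles and triples were drawn at random. In AlphaSeq, yeast of one mating type display the scFv and yeast of the other type display the target. Pairs that bind mate more often; barcode pairs of the diploids are counted by sequencing. Read counts were normalised to the haploid input and turned into Kd by a linear fit to BCL2-family pairs of known affinity, for each replicate. Each pool was mated in three replicate cultures.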

Substitutions are numbered in sequence along the VH above, starting at 1 (not Kabat).
All variants listed here change G59 of the VH, counted from its first residue.
Each Kd is an estimate from the mating assay, the geometric mean of the replicates in which the pair was seen; lower is stronger.
An entry "nd" has no value in the source: the pair was not observed among the diploids in any replicate. This suggests poor binding but is not conclusive.
In this assay the parent's reference entry averaged 72 nM; its copy inside this library read 7.5 nM.
Background: pairings of library AAYL51 with three empty control strains gave a value in 21% of cases (median 34 µM, 5th percentile 1.8 µM). Values in that range, when seen in few replicates, are hard to tell from nonspecific mating. For each scFv, signals with the empty controls are counted beside the result.

Variant G59D A61F gave nd (0 of 3 replicates; controls 0 of 9). With N54Q G59N Y60W the result was nd (0 of 3 replicates; controls 0 of 9). Variant I58C G59A showed 17 µM (2 of 3 replicates; controls 2 of 9). Variant F27I G59D G103W gave 690 µM (2 of 3 replicates; controls 2 of 9). Variant G59K V64W showed nd (0 of 3 replicates; controls 0 of 9). For F27M G59W, the assay gave nd (0 of 3 replicates; controls 0 of 9). With I51S G59Q V99P the result was nd (0 of 3 replicates; controls 0 of 9). Variant F29H G59K V99W showed 59 µM (1 of 3 replicates; controls 2 of 9). Variant G59K Y105C D107M gave nd (0 of 3 replicates; controls 0 of 9).

For F29C G59S S63I, the assay gave 12 µM (1 of 3 replicates; controls 1 of 9). Variant I51V G59I Y60D gave 2.0 µM (1 of 3 replicates; controls 0 of 9). For D31H G59N V64C, the assay gave 21 µM (3 of 3 replicates; controls 3 of 9). Variant N54R G56P G59R gave 14 µM (1 of 3 replicates; controls 1 of 9). For G59W K65D F106L, the assay gave nd (0 of 3 replicates; controls 0 of 9). Variant G59A V64P G100F gave nd (0 of 3 replicates; controls 1 of 9). Variant D31M N54R G59Y showed 94 µM (1 of 3 replicates; controls 2 of 9). Variant D30Q N54S G59K gave 22 µM (1 of 3 replicates; controls 0 of 9). With T28R G59N the result was 310 µM (2 of 3 replicates; controls 1 of 9).

For M34D G59L, the assay gave 33 µM (2 of 3 replicates; controls 4 of 9). For G59K, the assay gave 62 µM (3 of 3 replicates; controls 5 of 9). With F29M G50Y G59K the result was 6.3 µM (1 of 3 replicates; controls 0 of 9). Variant D31P G59I A61I gave nd (0 of 3 replicates; controls 2 of 9). Variant I51D G59H V64C gave nd (0 of 3 replicates; controls 0 of 9). Variant G59T S63G V99T gave nd (0 of 3 replicates; controls 0 of 9). For S55I G59D, the assay gave nd (0 of 3 replicates; controls 0 of 9). For S55C G56L G59T, the assay gave nd (0 of 3 replicates; controls 5 of 9). With Y32S M34Q G59T the result was nd (0 of 3 replicates; controls 0 of 9).

Variant N54I S55C G59D showed nd (0 of 3 replicates; controls 1 of 9). Variant G59R showed nd (0 of 3 replicates; controls 0 of 9). Variant G56Q G59W K65E showed nd (0 of 3 replicates; controls 0 of 9). Variant F29Q G59M G103L gave 33 µM (2 of 3 replicates; controls 3 of 9). For I58Q G59E, the assay gave 13 µM (1 of 3 replicates; controls 0 of 9). With G59E Y105V D107T the result was 1.7 µM (1 of 3 replicates; controls 1 of 9). Variant W53H G59Q S63D showed 26 µM (2 of 3 replicates; controls 1 of 9). For G59A Y60G Y105H, the assay gave 190 µM (2 of 3 replicates; controls 4 of 9). For Y32S G50Q G59R, the assay gave nd (0 of 3 replicates; controls 3 of 9).

From the list, the first 6 with no signal in any replicate:

{"changes": "G59D A61F", "Kd": "nd", "detected": "0 of 3", "control signals": "0 of 9"}
{"changes": "N54Q G59N Y60W", "Kd": "nd", "detected": "0 of 3", "control signals": "0 of 9"}
{"changes": "G59K V64W", "Kd": "nd", "detected": "0 of 3", "control signals": "0 of 9"}
{"changes": "F27M G59W", "Kd": "nd", "detected": "0 of 3", "control signals": "0 of 9"}
{"changes": "I51S G59Q V99P", "Kd": "nd", "detected": "0 of 3", "control signals": "0 of 9"}
{"changes": "G59K Y105C D107M", "Kd": "nd", "detected": "0 of 3", "control signals": "0 of 9"}